Experiments:
[1] = GSH Incubation Assay; assay type: in vitro ADME; details: incubation in human liver microsomes in the presence of GSH
[2] = HLM Clint (clearance in human liver microsomes); assay type: in vitro ADME
[3] = pKa; assay type: physicochemical; details: Measurement determined at Analyza
[4] = target: BACE1 (Homo sapiens (Human), UniProt P56817); assay: BACE1 Cell-Free Assay (fluorescence polarization); assay type: biochemical; details: read-out: BACE1 Cell Free IC50; Table 4
[5] = system: sAPPβ in H4 human neuroglioma cells over-expressing the wild-type human APP695; assay: sAPPβ Whole-Cell Assay (WCA); assay type: cell-based; details: read-out: sAPPβ Whole Cell IC50, 18 h

By UniProt entry, the sequences of proteins in these tests, tags left out. Residues count along the entry.
UniProt P56817, 46-457 limits assumed: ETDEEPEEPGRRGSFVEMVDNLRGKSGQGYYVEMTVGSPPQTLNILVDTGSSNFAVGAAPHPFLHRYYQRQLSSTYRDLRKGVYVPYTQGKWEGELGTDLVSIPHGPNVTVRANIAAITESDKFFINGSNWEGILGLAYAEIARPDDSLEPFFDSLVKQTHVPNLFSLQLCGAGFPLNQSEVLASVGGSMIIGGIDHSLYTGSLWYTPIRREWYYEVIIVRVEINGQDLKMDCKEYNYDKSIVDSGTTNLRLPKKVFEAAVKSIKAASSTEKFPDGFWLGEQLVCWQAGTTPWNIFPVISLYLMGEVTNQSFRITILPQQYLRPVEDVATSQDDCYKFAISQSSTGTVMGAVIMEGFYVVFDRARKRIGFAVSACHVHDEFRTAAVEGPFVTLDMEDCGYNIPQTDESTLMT

| formation of GSH adducts [1] | HLM CLint [2] [mL/min/kg] | pKa [3] | IC50 [4] [µM] | IC50 [5] [µM] | SMILES |
| --- | --- | --- | --- | --- | --- |
| showed the formation of chemical adducts |  |  |  |  | C[C@H]1C[C@H]2CSC(N)=N[C@@]2(c2cc(NC(=O)c3ccc(C#N)cn3)cs2)CO1 |
|  | <8 | 7 | > 100 |  | C[C@H]1C[C@H]2CSC(N)=N[C@@]2(c2ncc(NC(=O)c3ccc(OC(F)F)cn3)s2)CO1 |
|  | 8.3 | 8.2 |  | < 0.001 | C[C@H]1C[C@H]2CSC(N)=N[C@@]2(c2cc(NC(=O)c3ccc(OC(F)F)cn3)ccc2F)CO1 [Comparator 4] |
